Test: Inhibition of SYK-mediated alpha CD3/alpha CD28-stimulated human T lymphocytes proliferation measured after 90 hrs by EdU incorporation assay

Q: Which EC50 does the source give for Nc1cncc(-c2cn3ccnc3c(Nc3ccc(N4CCN(C5COC5)CC4)cc3)n2)n1 [US9504684, Ex.-2] here?
A: 1300 nM

Source: BindingDB's records for doi:10.1021/acsmedchemlett.9b00621 (Gilead Sciences, 2020)
